Earlier results as cited in patent US20250099434A1, “METHODS OF TREATING AMYLOID RELATED BRAIN DISORDERS USING NOVEL COMPOUNDS AND ANTIBODIES” (T3D Therapeutics, Inc., priority 2022, published 2025).

Details: cited from earlier work

In the case of “ADUHELM: amyloid beta-directed antibody indicated for the treatment of Alzheimer's disease sold by Biogen”, the “ARIA-E observed, % of patients” value (10 mg/kg) is listed as 35%, the “ARIA-H observed, % of patients” value (10 mg/kg) is listed as 21% and the “clinical symptoms present, % of patients who had an observation of ARIA (-E and/or -H)” value (10 mg/kg) is listed as 24%. For the same substance, the “confusion/delirium/altered mental status/disorientation in patients with ARIA” value (10 mg/kg) was 5%, the “dizziness/vertigo in patients with ARIA” value (10 mg/kg) was 4% and the “headache in patients with ARIA” value (10 mg/kg) was 13%. For the same substance, the “nausea in patients with ARIA” value (10 mg/kg) was 2%, the “patients with more than one episode of ARIA-E” value (10 mg/kg) was 10% and the “serious symptoms associated with ARIA, % of patients” value (10 mg/kg) was 0.3%. For the same substance, the “visual disturbance in patients with ARIA” value (10 mg/kg) was 2%, the “AD patients treated who develop ARIA” value (Jäkel et al., 2021) was “≈ 40%” and the “resolution, % of ARIA-E patients” value (by 12 weeks) was 68%. The “resolution, % of ARIA-E patients” value (by 20 weeks) was 91%, the “clinical symptoms resolved, % of patients” value (during the period of observation) was 88% and the “incidence of ARIA-E in ApoE ε4 carriers” value (human, in vivo) was 42%. The “incidence of ARIA-E in ApoE ε4 non-carriers” value (human, in vivo) was 20%, the “resolution, % of ARIA-E patients” value (overall after detection) was 98% and the “maximum radiographic severity mild, % of patients who had ARIA-E” value (planned dose 10 mg/kg) was 30%. The “maximum radiographic severity moderate, % of patients who had ARIA-E” value (planned dose 10 mg/kg) was 58% and the “maximum radiographic severity severe, % of patients who had ARIA-E” value (planned dose 10 mg/kg) was 13%.

Where two headings read alike, the source gives them in different places.
